These results are taken from PMC4917012.

By Km is commonly meant the substrate concentration at which the rate is half of its maximum. In general, kcat refers to the maximal rate divided by the concentration of active sites. In general, kcat/Km refers to the turnover number divided by the Michaelis constant.

The subject of this data set is NCCc1c[nH]c2ccccc12. Kind of data set: purified protein. The note with it: 100 mM NaCl, 100 μM NAD and FAD, 2.5 μM MBP-RebF, 2.5% DMSO, 25 mM HEPES pH 7.4, 25 °C.
[1] abbreviates: variant 8F (changes summed along the printed lineage, b15-b20), 25 μM enzyme.

“RebH (rebeccamycin halogenase) (Lentzea aerocolonigenes; F465L/I52M/L380F/N166S/N470S/Q494R/R509Q/S110P/S130L/S448P/Y455W)”: under setting [1], the Km was determined as 1747 µM, the kcat was 0.000617 s⁻¹ and the specificity constant (kcat/Km) is 0.35 M⁻¹ s⁻¹.

With “RebH (rebeccamycin halogenase) (Lentzea aerocolonigenes; N470S)”, for the setting “variant 0S, 0.1 μM”, the Km worked out at 10.6 µM, the kcat is 0.00225 s⁻¹ and the kcat/Km was 433 M⁻¹ s⁻¹.
